According to publication PMC6389962 (Nature Communications, 2019):

Legend:
[1] = molecular target: T1, mouse GLP-1 receptor (Mus musculus, UniProt O35659); test: cell-based; conditions: for Emax: 14: experiment 1
T1 sequence (O35659 22-463): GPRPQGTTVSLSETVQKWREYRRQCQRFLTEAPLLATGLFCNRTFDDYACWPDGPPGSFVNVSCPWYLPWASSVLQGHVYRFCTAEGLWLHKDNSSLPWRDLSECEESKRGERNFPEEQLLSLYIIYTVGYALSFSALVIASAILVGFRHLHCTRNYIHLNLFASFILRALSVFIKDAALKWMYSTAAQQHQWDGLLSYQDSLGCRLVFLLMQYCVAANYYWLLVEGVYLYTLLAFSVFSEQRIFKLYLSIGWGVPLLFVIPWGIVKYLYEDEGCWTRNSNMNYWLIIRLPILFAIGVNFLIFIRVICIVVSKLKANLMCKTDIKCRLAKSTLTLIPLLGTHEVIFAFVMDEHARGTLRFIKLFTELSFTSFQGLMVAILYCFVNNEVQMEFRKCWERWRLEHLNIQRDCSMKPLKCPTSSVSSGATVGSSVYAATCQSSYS

[2] = molecular target: T1, mouse GLP-1 receptor
[3] = read-out: Top (best-fit value), variable slope four-parameter fit, unconstrained

## CC[C@H](C)[C@H](NC(=O)[C@H](Cc1ccccc1)NC(=O)[C@H](CCC(=O)O)NC(=O)[C@H](CCCCN)NC(=O)[C@H](C)NC(=O)[C@H](C)NC(=O)[C@H](CCC(N)=O)NC(=O)CNC(=O)[C@H](CCC(=O)O)NC(=O)[C@H](CC(C)C)NC(=O)[C@H](Cc1ccc(O)cc1)NC(=O)[C@H](CO)NC(=O)[C@H](CO)NC(=O)[C@@H](NC(=O)[C@H](CC(=O)O)NC(=O)[C@H](CO)NC(=O)[C@@H](NC(=O)[C@H](Cc1ccccc1)NC(=O)[C@@H](NC(=O)CNC(=O)[C@H](CCC(=O)O)NC(=O)CNC(=O)[C@@H](N)Cc1c[nH]cn1)[C@@H](C)O)[C@@H](C)O)C(C)C)C(=O)N[C@@H](C)C(=O)N[C@@H](C)CNC(=O)N[C@@H](C)CNC(=O)N[C@@H](C)CNC(=O)NCC(=O)N[C@@H](CCCNC(=N)N)C(=O)NCC(N)=O [compound 19, GG2[A^uA^uA^u]^25-28]
[1]
  EC50: 368 nM
[1]; read-out: Top (best-fit value), fit with BOTTOM = 0%
  Emax: 160%
[2]; cAMP production, from EC50
  Potency (%), percentage of potency compare to GLP-1-G^2: 0.07%

## CC[C@H](C)[C@H](NC(=O)[C@H](Cc1ccccc1)NC(=O)[C@H](CCC(=O)O)NC(=O)[C@H](CCCCN)NC(=O)[C@H](C)NC(=O)[C@H](C)NC(=O)[C@H](CCC(N)=O)NC(=O)CNC(=O)[C@H](CCC(=O)O)NC(=O)[C@H](CC(C)C)NC(=O)[C@H](Cc1ccc(O)cc1)NC(=O)[C@H](CO)NC(=O)[C@H](CO)NC(=O)[C@@H](NC(=O)[C@H](CC(=O)O)NC(=O)[C@H](CO)NC(=O)[C@@H](NC(=O)[C@H](Cc1ccccc1)NC(=O)[C@@H](NC(=O)CNC(=O)[C@H](CCC(=O)O)NC(=O)CNC(=O)[C@@H](N)Cc1c[nH]cn1)[C@@H](C)O)[C@@H](C)O)C(C)C)C(=O)N[C@@H](C)C(=O)N[C@@H](Cc1c[nH]c2ccccc12)C(=O)N[C@@H](C)CNC(=O)N[C@@H](C)CNC(=O)N[C@@H](C)CNC(=O)N[C@@H](CCCNC(=N)N)C(=O)NCC(N)=O [compound 20, GG2[A^uA^uA^u]^26-29]
[1]
  EC50: 26 nM
[1]; [3]
  Emax: 81.6%
[2]
  LogEC50 (best-fit value): -7.584

## CC[C@H](C)[C@H](NC(=O)[C@H](Cc1ccccc1)NC(=O)[C@H](CCC(=O)O)NC(=O)[C@H](CCCCN)NC(=O)[C@H](C)NC(=O)[C@H](C)NC(=O)[C@H](CCC(N)=O)NC(=O)CNC(=O)[C@H](CCC(=O)O)NC(=O)[C@H](CC(C)C)NC(=O)[C@H](Cc1ccc(O)cc1)NC(=O)[C@H](CO)NC(=O)[C@H](CO)NC(=O)[C@@H](NC(=O)[C@H](CC(=O)O)NC(=O)[C@H](CO)NC(=O)[C@@H](NC(=O)[C@H](Cc1ccccc1)NC(=O)[C@@H](NC(=O)CNC(=O)[C@H](CCC(=O)O)NC(=O)CNC(=O)[C@@H](N)Cc1c[nH]cn1)[C@@H](C)O)[C@@H](C)O)C(C)C)C(=O)N[C@@H](C)C(=O)N[C@@H](Cc1c[nH]c2ccccc12)C(=O)N[C@@H](CC(C)C)C(=O)N[C@@H](C)CNC(=O)N[C@@H](C)CNC(=O)N[C@@H](C)CNC(=O)NCC(N)=O [compound 21, GG2[A^uA^uA^u]^27-30]
[1]
  EC50: 2.8 nM
[1]; [3]
  Emax: 104%
[2]
  LogEC50 (best-fit value): -8.547

Read-outs that look alike come from different tables or passages of the source.
